From patent US11084798B1, “2-oxoquinazoline derivatives as methionine adenosyltransferase 2A inhibitors” (IDEAYA BIOSCIENCES, INC., priority 2018, dated 2021)

The chains behind the UniProt entries cited, without tags or fusion partners.
UniProt P31153, whole entry: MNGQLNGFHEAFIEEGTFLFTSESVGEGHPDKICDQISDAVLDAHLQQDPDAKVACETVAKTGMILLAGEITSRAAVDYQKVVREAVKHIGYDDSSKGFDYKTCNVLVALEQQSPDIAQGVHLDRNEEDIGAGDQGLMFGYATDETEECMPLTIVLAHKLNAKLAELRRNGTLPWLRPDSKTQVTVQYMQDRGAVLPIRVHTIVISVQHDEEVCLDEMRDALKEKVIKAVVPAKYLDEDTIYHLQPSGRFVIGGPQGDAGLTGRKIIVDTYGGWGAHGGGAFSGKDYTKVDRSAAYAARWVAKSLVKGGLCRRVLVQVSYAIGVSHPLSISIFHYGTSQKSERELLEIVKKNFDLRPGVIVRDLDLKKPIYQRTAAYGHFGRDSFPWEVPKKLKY

Molecular target: hMAT2A (Homo sapiens (Human), UniProt P31153)
Test: Phosphate Sensor Fluorescence Assay (MAT2A enzyme inhibition)
Type: biochemical
Conditions: read-out: IC50 um, L-methionine and ATP 500 uM, class symbols

`CC(CO)Nc1nc(=O)n(-c2ccccc2Cl)c2nc(C(F)(F)F)ccc12` (single isomer, unassigned) [one of 273 and 292] was tested. Which pIC50 did it give?
Its pIC50 is 5.00 to 6.00.

pIC50: −log10 of the molar value.
